# Reference: patent US6555523B1, “Use of cirsiliol and derivatives to treat infections” (priority 1999, dated 2003)
# System: MDBK cells
# Assay: Cytotoxicity in MDBK cultures (BVDV test)
# Settings: table footnote, unit from the table's concentration head
compound,measurement,value
"NC(=O)c1ncn([C@@H]2O[C@H](CO)[C@@H](O)[C@H]2O)n1 [Ribavirin, ribavirin, reference compound]",MTC (minimum cytotoxic drug concentration),> 10 µg/mL
